Protein sequences, listed by entry. Tags and fused reporters are not part of them.
UniProt P12931, whole entry: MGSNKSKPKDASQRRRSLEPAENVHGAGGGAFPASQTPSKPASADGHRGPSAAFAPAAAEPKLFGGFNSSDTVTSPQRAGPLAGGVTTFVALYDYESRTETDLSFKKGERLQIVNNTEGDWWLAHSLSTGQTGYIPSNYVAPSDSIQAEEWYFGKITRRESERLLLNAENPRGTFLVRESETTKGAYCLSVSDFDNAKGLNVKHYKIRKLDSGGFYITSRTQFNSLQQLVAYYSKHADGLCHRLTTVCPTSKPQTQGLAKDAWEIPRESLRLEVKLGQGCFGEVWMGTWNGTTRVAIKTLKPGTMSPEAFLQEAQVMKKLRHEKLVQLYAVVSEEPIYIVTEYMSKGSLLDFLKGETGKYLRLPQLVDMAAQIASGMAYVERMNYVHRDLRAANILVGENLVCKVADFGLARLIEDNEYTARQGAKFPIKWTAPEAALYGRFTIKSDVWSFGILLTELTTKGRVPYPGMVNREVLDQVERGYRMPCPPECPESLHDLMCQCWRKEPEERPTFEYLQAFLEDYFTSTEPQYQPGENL

In patent US7129351B2, “Pyrimido compounds having antiproliferative activity” (Hoffmann-La Roche Inc., priority 2002, dated 2006):

Biological target: Src (p60^c-src) (Homo sapiens, UniProt P12931)
Experiment: SRC-Inhibitor-Assay (homogenous time-resolved fluorescence kinase assay)
Conditions: read-out: IC50 (μM) - Enzyme Inhibition Assay, Src; ATP 5 μM; enzyme 2.5 U/mL; pre-incubated 15 min at 15° C.
From the text: The activity of the compounds according to this invention as inhibitors for the src-family tyrosine kinases was shown by using the following assay.
SRC-Inhibitor-Assay Parameters:
whereby both peptides were synthesized by an optimized solid phase peptide synthesis protocol (Merrifield (1962) Fed. Proc. Fed. Amer. Soc Exp. Biol. 21, 412) on an Zinsser SMP350 peptide synthesizer. […] The identity was proven by MALDI mass spectroscopy [2720.0]. • Enzymes: Upstate Lck (p56^lck, active), Upstate Src (p60^c-src, partially purified) were purchased from UBI. • Homogenous, time-resolved Fluorescence Assay: Reader: Perkin Elmer, Wallac Viktor 1420-040 multilabel counter; Liquid handling system: Beckman Coulter, Biomek 2000. • ATP, Tween 20, HEPES were purchased from Roche Molecular Biochemicals, MgCl2 and MnCl2 were purchased from Merck Eurolab, TCEP was purchased from Pierce, 384 Well low volume fluorescence plates was purchased from Falcon. […]
At first the enzyme is pre-incubated for 15 min. at 15° C. in aqueous solution with corresponding amounts of inhibitors according to this invention. […] The proceeding of this reaction is immediately monitored using time resolved fluorescence spectroscopy in a suitable well plate reader. […]

IC50: < 1 µM
SMILES: CCN(CC)CCOc1ccc(Nc2ncc3c(n2)N(C)C(=O)N(c2ccccc2Br)C3C)cc1 (single isomer, unassigned)
